# Target: T1, T. cruzi TR (Trypanosoma cruzi, UniProt P28593)
# Protein sequences, listed by entry. Tags and fused reporters are not part of them. Lines headed by an entry give the natural chain unless they say otherwise; changes in a name come on top.
# UniProt P28593: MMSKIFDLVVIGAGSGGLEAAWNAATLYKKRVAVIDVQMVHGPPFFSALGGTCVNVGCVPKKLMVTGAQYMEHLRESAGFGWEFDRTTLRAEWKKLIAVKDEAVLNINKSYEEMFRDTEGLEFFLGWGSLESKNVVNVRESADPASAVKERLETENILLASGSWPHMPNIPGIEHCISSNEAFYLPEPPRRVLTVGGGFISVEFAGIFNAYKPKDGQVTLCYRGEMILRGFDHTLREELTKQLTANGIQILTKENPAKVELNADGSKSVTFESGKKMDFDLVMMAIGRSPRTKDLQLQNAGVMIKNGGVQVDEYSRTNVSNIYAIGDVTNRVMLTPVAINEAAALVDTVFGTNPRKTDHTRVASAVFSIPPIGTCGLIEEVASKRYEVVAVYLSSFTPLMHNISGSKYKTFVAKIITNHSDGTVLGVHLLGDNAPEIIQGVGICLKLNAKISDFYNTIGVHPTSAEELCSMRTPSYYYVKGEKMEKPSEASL
# T1 construct: made in house
# Assay type: biochemical
# Conditions: Ki and IC50 on TR versus chlorhexidine
# Method: The compounds used in the enzymatic inhibitory testing and the in silico screening were available as stock solutions in DMSO or in solid from a compound library maintained at MSD. All IC50 determinations were performed starting from solid material. Recombinant T. cruzi TR (CL strain) was prepared using a published expression system. TS2 was prepared enzymatically as described previously. For antiparasitic studies, culture-adapted bloodstream T. brucei parasites of cell line 449 were used. These cells are descendants of strain Lister 427 stably transfected with the gene for the tetracycline repressor.
# The kinetic analysis of TR was performed in 384-well plates (Greiner Bio-One GmbH, Frickenhausen, Germany). The reaction mixture (50 μl) contained 5 mU/ml TR, 40 mM Hepes, pH 7.5, 1 mM EDTA, 300 μM NADPH (Sigma-Aldrich), 0.1 mg/ml BSA, and 0.01% Pluronic (BASF). […] The absorption decrease at 340 nm was measured by start and end point determination resulting in a delta of the optical density (delta A) for 30 min. […]
# Eleven compound concentrations were used ranging from 100–0.01 μM or 200–0.004 μM. […] IC50 values were calculated using the four-parameter equation model 205 and the option “unlock” from the XLfit add-in (IDBS, Guildford, United Kingdom) in Excel (Microsoft Corporation, Redmond, WA). […]
smiles,measurement,value
O=C(Nc1ccccc1)OCCSc1ccc([N+](=O)[O-])c2nonc12 [Compound 1],on target activity (Ki and IC50) times better compared to chlorhexidine,10–20 times
